The subject of one assay is PD-1/PD-L1 interaction. Kind of assay: PD-1/PD-L1 NFAT Reporter Assay (co-culture of Jurkat T cells overexpressing PD-1 and PD-L1 expressing CHO cells). The note with it: read-out: Jurkat NFAT EC50; co-culture 6 hrs at 37° C., NFAT-mediated luciferase activity. How it is done:
Blocking the PD-1/PD-L1 interaction will release the inhibitory signal and results in TCR signaling and NFAT-mediated luciferase activity.
CHO cells expressing surface-bound anti-CD3 antibodies and PD-L1 were first seeded overnight and treated with the compounds. Jurkat cells overexpressing PD-1 and a luciferase construct under NFAT promoter were then immediately seeded on the monolayer of CHO cells. The co-culture was then incubated for 6 hrs at 37° C. Luciferase activity was assessed by adding the ONE-Glo reagent and measuring luminescence with a plate reader. EC50 values were determined from the fit of the dose-response curves.
For orientation: A reporter such as luciferase makes a cellular process visible.

Sequences of proteins named here, by UniProt entry; tags and fusion partners are left off. Residues count along the entry.
UniProt Q9NZQ7, 19-238 limits assumed: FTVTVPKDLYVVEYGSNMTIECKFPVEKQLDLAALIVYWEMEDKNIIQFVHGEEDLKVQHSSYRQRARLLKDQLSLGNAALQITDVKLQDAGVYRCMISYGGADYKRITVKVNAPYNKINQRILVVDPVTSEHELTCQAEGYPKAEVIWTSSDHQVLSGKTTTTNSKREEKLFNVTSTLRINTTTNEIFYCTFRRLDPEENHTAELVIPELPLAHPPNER

The target of another assay is PD-1/PD-L1 PPI (Homo sapiens, UniProt Q9NZQ7). The experiment in a line: PDL1/PD1 Binding Assay. The note with it: read-out: PD-1/PD-L1 PPI IC50; PDL1-6×His 0.3 nM, PD1-Fc-Avi-Biotin 2.5 nM, Acceptor/Donor beads, Envision reader. How it is done: Compounds to be tested were serially diluted in DMSO, and further diluted in assay buffer (25 mM Hepes pH 7.4, 150 mM NaCl, 0.005% Tween 20, BSA 0.01%). Diluted compounds were added to the wells with final concentration of DMSO at 1%. PDL1-6×His protein was added to the wells, mixed well with compound. The plates were incubated for 30 min at room temperature. PD1-Fc-Avi-Biotin protein was added to the wells. Final concentration of PDL1 and PD1 protein is 0.3 nM and 2.5 nM, respectively. After a binding time of 30 min at room temperature, Anti-6×His Acceptor beads (final concentration 20 ug/ml) were added to the wells, and the incubation continued for 1 h. Streptavidin Donor beads (final concentration 20 ug/mL) were added at reduced light. The plates were sealed with foil and incubated in the dark for additional 1 h or overnight before reading on an Envision reader. The IC50 values were determined by fitting the curves using a four-parameter equation in Graphpad Prism 8.

As to `COc1nc(-c2cccc(-c3cccc(NC(=O)c4nn(C)c(=O)n(C)c4=O)c3C)c2Cl)cc2c1C(N[C@@H]1CCOC[C@H]1O)CC2` (stereo partly drawn), the EC50 with PD-1/PD-L1 interaction is less than 10 nM. Also, the IC50 at PD-1/PD-L1 PPI is less than 10 nM.

As for `CCOC(=O)N(C[C@@H]1CCC(=O)N1)C1COc2cc(-c3cccc(-c4cccc(NC(=O)c5cn(C)c(=O)n(C)c5=O)c4C)c3Cl)nc(OC)c21` (stereo partly drawn), the concentration for a half-maximal effect (EC50) with PD-1/PD-L1 interaction was greater than 10000 nM. On PD-1/PD-L1 PPI, the IC50 was less than 10 nM.

As for `COc1nc(-c2cccc(-c3cccc(NC(=O)c4cn(C)c(=O)n(C)c4=O)c3Cl)c2Cl)cc2c1C(NC[C@@H]1CCC(=O)N1)CO2` (stereo partly drawn), in the assay with PD-1/PD-L1 interaction, the EC50 was less than 10 nM. Moreover, the IC50 on PD-1/PD-L1 PPI was less than 10 nM.

Broadly, the EC50 is the concentration giving half of the maximal effect.

The record behind these values is US12534450B2, “Methods and compositions for targeting PD-L1” (Aligos Therapeutics, Inc., priority 2021, dated 2026).
